Ab-91 heavy chain CDR variants: yeast mating affinities

Target peptide (SARS-CoV-2 spike, HR2 region): PDVDLGDISGINAS

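The starting antibody came from a phage panning campaign against this peptide. AAYL51 was designed without a model: most single CDR substitutions and a random sample of double and triple ones. Affinity was read by AlphaSeq, a pooled yeast mating assay with surface-displayed partners. Binding brings cells together so that they mate, and sequencing counts the barcode pairs among the diploids. Read counts were normalised to the haploid input and turned into Kd by a linear fit to BCL2-family pairs of known affinity, for each replicate. The assay was run in three technical replicates.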

Each scFv is VL, a 15-residue (Gly4Ser)3 linker, VH, as in the parent Ab-91, and differs from it in the CDRs of the heavy chain only.
VL: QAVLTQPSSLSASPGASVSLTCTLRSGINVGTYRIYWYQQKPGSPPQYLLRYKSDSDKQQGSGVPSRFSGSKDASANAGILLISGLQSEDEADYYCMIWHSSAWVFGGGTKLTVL
VH: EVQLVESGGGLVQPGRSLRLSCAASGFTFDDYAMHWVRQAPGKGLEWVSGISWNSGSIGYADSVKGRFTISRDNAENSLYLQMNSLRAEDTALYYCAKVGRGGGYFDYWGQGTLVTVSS

Each variant is given by its three heavy chain CDRs, as the data file delimits them; those of the parent are GFTFDDYAMH, GISWNSGSIGYADSVK, VGRGGGYFDY.
The read-out is the apparent dissociation constant on a log10 scale (nM): the lower, the stronger.
Replicates are averaged; those with no signal do not enter the mean.
Where no diploid with the target was found in that replicate, the entry reads "ND": below detection, most likely a poor binder, though not proof of it.

CDR-H1	CDR-H2	CDR-H3	replicates, log10 nM	mean, log10 nM	control signals
GFTFDDYAMH	GISWNSGSIGYADSVK	VGRGGKLFDY	ND / 5.89 / ND	5.89	0 of 9
GFTFDDYAMH	GISWISGSIGYADSVT	VGNGGGYFDY	5.41 / 4.62 / 5.45	5.16	5 of 9 (5.43)
GFTFDDYAMH	GKSWNSGSIGEADSVK	VGRGRGYFDY	5.34 / 3.82 / ND	4.58	3 of 9 (4.31)
GFTFDDYAMH	GISWNSLSIGYADSLK	CGRGGGYFDY	ND / ND / ND	ND	1 of 9 (3.14)
GFFCDDYAMH	GISWNIGSIGYADSVK	VGRGGGYFDY	ND / ND / ND	ND	0 of 9
GFTFDDYAMH	GISWNSGSEGYADSVK	VGRGGGYFDY	2.52 / 2.01 / 1.99	2.17	5 of 9 (4.97)
GFTFDDYAMH	GISWNSGSIGYADSVK	VGRGGKYFDY	2.24 / ND / ND	2.24	0 of 9
GITFDDYAMH	GISWNSGSIGYADSVK	VGRGTGYQDY	ND / ND / ND	ND	0 of 9
PFTFDDYAMH	GISWNSGSNGYADSVK	VGRGGQYFDY	ND / ND / ND	ND	0 of 9
GFTFDDYAMH	GISWNSGSIGYADWVK	VGDGGGYFDI	ND / ND / ND	ND	1 of 9 (4.44)
GFGFDDYAMH	GISWNSGSIEYADVVK	VGRGGGYFDY	ND / ND / ND	ND	0 of 9
GFTFDDYFMH	GISWNSGSIGYADSNK	VWRGGGYFDY	ND / ND / ND	ND	0 of 9
GFTFDDYAMD	GISWNRGSIGYADSVK	VGRGGGYFDY	ND / ND / 4.85	4.85	1 of 9 (4.82)
GFTFDDYAHH	GISWNSGSIGYADSVK	VGRGGAYFDY	ND / ND / ND	ND	2 of 9 (4.77)
GFTFDDYAFH	GISWNSGSIGYADSVK	YGRGGGYFNY	3.64 / ND / 4.28	3.96	1 of 9 (5.07)
WFTFDDYAMH	GISWNSGSIGYAHSVK	VGRGGWYFDY	ND / ND / ND	ND	0 of 9
GITFDDWAMH	GISWNSGSIGYADSVK	VGRGAGYFDY	ND / ND / ND	ND	1 of 9 (3.43)
GFTFDDYAMH	GISWNSGSIGYADSVK	VGRGGGLIFY	1.15 / 0.84 / 0.73	0.91	2 of 9 (5.05)
GFTKDDYAMH	GISWNSGSIGYADPVK	VSRGGGYFDY	5.36 / 4.58 / ND	4.97	7 of 9 (4.63)
GFTFDDYIMH	NISWNSGSIGYLDSVK	VGRGGGYFDY	ND / ND / ND	ND	0 of 9
GCTDDDYAMH	GISWNSGSIGYADSVK	PGRGGGYFDY	ND / ND / ND	ND	2 of 9 (4.73)
GFTFDDYANH	GISWNSGGIGYADSVW	VGRGGGYFDY	ND / ND / ND	ND	1 of 9 (2.77)
RFTFDDYAMH	GISWNSGSIGYADSVK	VGRGHGYFDY	ND / ND / ND	ND	1 of 9 (4.09)
GFTFDDYAMH	GISWNSGSSWYADSVK	VGRGGGYFDY	4.91 / 4.33 / 6.12	5.12	8 of 9 (5.24)
GFTFDDYAMH	GIPWNSGSIGYADSVK	VGRGGGQMDY	4.40 / ND / 3.76	4.08	1 of 9 (3.37)
GFTFDDYAMH	GISWNSGLIGYARSVK	VGRGGSYFDY	3.51 / ND / ND	3.51	1 of 9 (4.19)
GFTFDDYYMH	GISKNSHSIGYADSVK	VGRGGGYFDY	5.52 / 5.20 / 5.64	5.46	7 of 9 (5.12)
GFTCDDYAMH	GISWNSGSIGYADSVK	VVRGGWYFDY	5.30 / ND / 4.59	4.95	0 of 9
GFTFDDNAMH	GISWNSGSIGYADSVK	VGRGKGYFDY	5.57 / 5.83 / 4.28	5.23	4 of 9 (5.22)
GFLFDDYAMH	QISWNSGSIGYADSVK	VGRLGGYFDY	ND / ND / ND	ND	0 of 9
WFTFDDYAMH	GISWNSGSIGYADSVK	VGRGGGYFDY	ND / ND / ND	ND	0 of 9
GFTFIDYAMN	GISWNSGSIGEADSVK	VGRGGGYFDY	6.18 / 5.36 / ND	5.77	5 of 9 (4.50)
GFHFDDYAMH	GISWNSLSIGYADSSK	VGRGGGYFDY	ND / 5.47 / ND	5.47	1 of 9 (3.92)
GFTPDDYAMH	GISWNSGSIGYADSNK	VGRGGGYFDY	ND / 4.15 / ND	4.15	1 of 9 (4.07)
GFTFWDYAMH	GISWNSGSPGYADAVK	VGRGGGYFDY	ND / ND / ND	ND	0 of 9
GFPFDDYAMH	GISWNSGMIGYADSVK	VGDGGGYFDY	ND / ND / ND	ND	0 of 9
GFEFDDYAMH	GISWNSKSIGYADSVK	VGRGGGYVDY	ND / 6.76 / ND	6.76	6 of 9 (4.54)
KFTFDDYAMH	GISWNSGSIGYADSAK	VGRGGGYLDY	4.04 / ND / ND	4.04	3 of 9 (4.52)
GFTFMDYAMH	GISWNSGSIGYADSVK	VGRGGGYHDY	3.22 / ND / ND	3.22	0 of 9
GFTFDDYAMH	GISWNSGSIGYADSVK	VGTGGGYMDY	6.10 / 5.17 / ND	5.63	1 of 9 (4.38)
GFTFDDYAMH	GIAWNSMSIGYADSEK	VGRGGGYFDY	5.01 / 5.95 / ND	5.48	4 of 9 (5.05)
GFTFDDTAMH	GVSWNSGSIGYACSVK	VGRGGGYFDY	4.39 / ND / ND	4.39	4 of 9 (4.75)
GFTLDDYACH	GISWNSGSIGYADSVK	VPRGGGYFDY	ND / ND / ND	ND	2 of 9 (5.05)
GFTFDWYAMH	GISWNSGSIGYADSVK	EGRGGGHFDY	0.44 / 0.39 / -0.12	0.24	5 of 9 (5.36)
GFTFDDYAMG	GISWGSGSIGYALSVK	VGRGGGYFDY	4.32 / ND / ND	4.32	3 of 9 (4.18)
GFTFDDYGMH	GISWNSGSIGYADSVS	VGEGGGYFDY	0.24 / 0.09 / -0.61	-0.10	2 of 9 (4.00)
GFTMDDYAMP	GISWNSGSIGYADSVK	VGRGGGPFDY	ND / ND / ND	ND	1 of 9 (3.33)
GFTFSDYAMH	GISWNSTSIGPADSVK	VGRGGGYFDY	ND / ND / ND	ND	0 of 9
GFTFDYYAME	GISWNSGSIGYADSVK	VGRGGGYFGY	ND / ND / ND	ND	0 of 9
GFTFDDYAWS	GISWNSGSIGYADSVK	VGRGGGDFDY	ND / 5.02 / ND	5.02	2 of 9 (3.62)

Picked from the list: the 7 lowest averages where every replicate gave a value.

{"CDR-H1": "GFTFDDYGMH", "CDR-H2": "GISWNSGSIGYADSVS", "CDR-H3": "VGEGGGYFDY", "replicates, log10 nM": "0.24 / 0.09 / -0.61", "mean, log10 nM": "-0.10", "control signals": "2 of 9 (4.00)"}
{"CDR-H1": "GFTFDWYAMH", "CDR-H2": "GISWNSGSIGYADSVK", "CDR-H3": "EGRGGGHFDY", "replicates, log10 nM": "0.44 / 0.39 / -0.12", "mean, log10 nM": "0.24", "control signals": "5 of 9 (5.36)"}
{"CDR-H1": "GFTFDDYAMH", "CDR-H2": "GISWNSGSIGYADSVK", "CDR-H3": "VGRGGGLIFY", "replicates, log10 nM": "1.15 / 0.84 / 0.73", "mean, log10 nM": "0.91", "control signals": "2 of 9 (5.05)"}
{"CDR-H1": "GFTFDDYAMH", "CDR-H2": "GISWNSGSEGYADSVK", "CDR-H3": "VGRGGGYFDY", "replicates, log10 nM": "2.52 / 2.01 / 1.99", "mean, log10 nM": "2.17", "control signals": "5 of 9 (4.97)"}
{"CDR-H1": "GFTFDDYAMH", "CDR-H2": "GISWNSGSSWYADSVK", "CDR-H3": "VGRGGGYFDY", "replicates, log10 nM": "4.91 / 4.33 / 6.12", "mean, log10 nM": "5.12", "control signals": "8 of 9 (5.24)"}
{"CDR-H1": "GFTFDDYAMH", "CDR-H2": "GISWISGSIGYADSVT", "CDR-H3": "VGNGGGYFDY", "replicates, log10 nM": "5.41 / 4.62 / 5.45", "mean, log10 nM": "5.16", "control signals": "5 of 9 (5.43)"}
{"CDR-H1": "GFTFDDNAMH", "CDR-H2": "GISWNSGSIGYADSVK", "CDR-H3": "VGRGKGYFDY", "replicates, log10 nM": "5.57 / 5.83 / 4.28", "mean, log10 nM": "5.23", "control signals": "4 of 9 (5.22)"}

Nonspecific signal, from three strains lacking the peptide, appeared in 21% of pairings of library AAYL51, centred on 4.54 (5% of these signals below 3.26); values are not corrected for it. Also given: how often the same scFv was detected with the empty control strains, with their mean in brackets.
For reference, the parent read 1.86 as the reference entry and 0.88 as a member of this library.

Source: Engelhart et al. 2022 (doi:10.1038/s41597-022-01779-4), MIT Lincoln Laboratory and A-Alpha Bio; data file from the FLAb repository.